Patent publication US20230129485A1, “SYSTEM AND METHOD FOR DETERMINING MATERIAL PROPERTIES OF MOLECULAR SYSTEMS FROM AN AB-INITIO PARAMETERIZED FORCE-FIELD” (InterX, Inc., priority 2021, published 2023)

Columns and labels:
[1] = Free energy of hydration predicted with the QM-parameterized force field model (ARROW FF), classical MD and PIMD simulation in a water box
[2] = Free energy of hydration by COSMO implicit solvent model (MolPro ver. 2012); details: absolute error vs Exp (hydration)
[3] = Free energy of hydration by Solvation Model Dielectric (SMD) implicit solvent model; details: absolute error vs Exp (hydration)
[4] = Free energy of hydration by Polarizable Continuum Model (PCM); details: absolute error vs Exp (hydration)
[5] = Free energy of hydration by COSMO-RS
[6] = Free energy of hydration by Free Energy Machine Learning Model (FML); details: absolute error vs Exp (hydration)
[7] = Table 3; free energy of solvation in cyclohexane, experimental; cited from earlier work

Which “water Arrow MD Error” value ([1]; Table 3, absolute error of MD hydration free energy vs experiment) does the source give for 1-Butanol here?
Its value is 0.85 kcal/mol.

And the “water Arrow PIMD8 Error” value ([1]; Table 3, absolute error of PIMD8 hydration free energy vs experiment)?
The value was 0.06 kcal/mol.

What about the “Arrow PIMD8 Error” value ([1]; absolute error vs Exp (hydration)) of the same compound?
The value was 0.06 kcal/mol.

What about the “COSMO/Molpro Error” value [2] of the same compound?
The value was 1.83 kcal/mol.

What about the “SMD Error” value [3] of the same compound?
The value was 0.82 kcal/mol.

What about the “PCM Error” value [4] of the same compound?
The value was 1.62 kcal/mol.

And the COSMO-RS error [5]?
The COSMO-RS error was 0.10 kcal/mol.

And the FML error [6]?
The FML error was 0.00 kcal/mol.

What about the “CHEX Exp (solvation)” value [7] of the same compound?
The value was -3.52 kcal/mol.

For `C1CCCC1` [Cyctopentane], which “COSMO/Molpro Error” value [2] is on record?
Its value is 1.83 kcal/mol.
